By IC50 is commonly meant the concentration at which inhibition is half-maximal.

This experiment is described as follows: Inhibition of calcium activated chloride channel in ATP-activated human HT-29 cells expressing YFP-H148Q/152L assessed as reduction in iodide influx preincubated for 10 mins followed by ATP addition by fluorescence assay. The essentials: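 Endogenous non-TMEM16A CaCC in HT-29 cells expressing YFP, read by plate reader. Initial rate of I⁻ influx taken as a linear measure of channel function. IC₅₀ from concentration-inhibition data; n=3.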
Consider `Cc1ccccc1NC(=O)c1c(NC(=O)C(F)(F)Cl)sc2c1CCCCC2`, for which the 50% inhibitory concentration (IC50) was 9.5 µM.
On to `Cc1ccccc1NC(=O)c1c(NC(=O)C(F)(F)Br)sc2c1CCCCC2`, for which the 50% inhibitory concentration (IC50) turned out to be 5.4 µM.
For `Cc1ccccc1NC(=O)c1c(NC(=O)C(F)(F)I)sc2c1CCCCC2`, the 50% inhibitory concentration (IC50) was found to be 3.5 µM.

The values above are taken from ChEMBL document CHEMBL4014325.
